{"source": "patent US10307140B2", "about": "“Device for detection of hepatocellar carcinoma (HCC) using an octanoate breath test” (EXALENZ BIOSCIENCE LTD., priority 2011, dated 2019)", "system": "liver mitochondria", "key": {"[1]": {"details": "FIG. 5, cirrhotic HCV patient without liver cancer"}, "[2]": {"details": "FIG. 6, cirrhotic HCV patient with active HCC"}}, "note": "Like-named read-outs stand apart in the source and are kept apart here.", "data": [{"smiles": "CCCCCCC[13C](=O)[O-].[Na+]", "note": "[13C-octanoate, 1-^13C-Octanoate Sodium]", "values": [{"measurement": "PDR peak", "setting": "[1]", "value": "~30", "unit": "%/h"}, {"measurement": "time to PDR peak", "setting": "[1]", "value": "≤ 30", "unit": "min"}, {"measurement": "PDR peak", "setting": "[2]", "value": "low"}, {"measurement": "time to PDR peak", "setting": "[2]", "value": "> 30", "unit": "min"}, {"measurement": "PDR curves", "setting": "FIG. 7, NASH patient with HCC, three consecutive OBTs before and after TACE with relapse", "value": "low"}, {"measurement": "PDR peak", "setting": "FIG. 8, cryptogenic cirrhosis with HCC, third curve after successful TACE", "value": "high"}, {"measurement": "PDR curves", "setting": "FIG. 8, cryptogenic cirrhosis with HCC, two curves before TACE", "value": "low"}, {"measurement": "PDR curve", "setting": "FIG. 9, HCV cirrhosis with HCC, before TACE", "value": "low"}, {"measurement": "PDR peak", "setting": "FIG. 9, HCV cirrhosis with HCC, second curve after successful TACE", "value": "high"}, {"measurement": "OBT peak", "setting": "Subject 01, active HCC, first visit before TACE, 100 mg oral", "value": 16.30, "unit": "%/h"}, {"measurement": "OBT peak", "setting": "Subject 01, second visit 3 months after TACE, HCC inactive", "value": 31.78, "unit": "%/h"}, {"measurement": "OBT peak", "setting": "Subject 02, first visit before TACE", "value": 25.36, "unit": "%/h"}, {"measurement": "OBT peak", "setting": "Subject 02, second visit 3 months after TACE, HCC remained active", "value": 22.19, "unit": "%/h"}, {"measurement": "OBT peak", "setting": "Subject 05, NASH patient, first visit before TACE", "value": 30.35, "unit": "%/h"}, {"measurement": "OBT peak", "setting": "Subject 05, NASH patient, second visit 5 months after TACE, inactive HCC", "value": 37.63, "unit": "%/h"}]}]}
